What is called IC50 is the concentration at which inhibition is half-maximal. Lower therefore signals inhibition by little substance.

For the first experiment, the system named is HCC827. The experiment is described as follows: Antiproliferative activity against human HCC827 cells harboring EGFR E746-A750 deletion mutant. The format is functional, cell-based. The method, boiled down:
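A431 was grown in EMEM with 10% FBS; HCC827 and NCI-H1975 were grown in RPMI-1640 with 10% FBS. Cell viability experiments were repeated at least three times.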
The compound `C=CC(=O)Nc1cc(Nc2nccc(-c3cn(C)c4ccccc34)n2)c(OC)cc1N(C)CCN(C)C` [OSIMERTINIB] displayed a half-maximal inhibitory concentration (IC50) of 61.6 nM.

The species named for a further experiment is Homo sapiens. As to the kind of experiment: Selectivity ratio of IC50 for human recombinant cytoplasmic GST-tagged EGFR (668 to 1210 residues) to IC50 for human recombinant cytoplasmic GST-tagged EGFR T790M/L858R double mutant (668 to 1210 residues). An outline of the steps:
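HTRF kinase assay on wild-type EGFR and the T790M/L858R mutant, with TK-substrate-biotin, ATP, 1 mM DTT, 1 mM MnCl2 and 5 mM MgCl2. Serially diluted compounds in 1% DMSO were preincubated with kinase for 15 min. The reaction was started with ATP plus substrate, run 60 min at room temperature, then stopped with Strep-XL665/TK Ab-Cryptate and read after 1 h. Run in duplicate, at least three independent IC50 determinations.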
Take `C=CC(=O)Nc1cc(Nc2nccc(-c3cn4c5c(cccc35)CCC4)n2)c(OC)cc1N(C)CCN(C)C`: the Ratio IC50 was 7.4 to 8.3. As to `C=CC(=O)Nc1cc(Nc2cc(-c3cn(C)c4ccccc34)nc(OC)n2)c(OC)cc1N(C)CCN(C)C`, the Ratio IC50 came to 58.3. For `C=CC(=O)Nc1cc(Nc2nccc(-c3cn4c5c(cccc35)CCC4)n2)c(OC)cc1N1CC(CN(C)C)C1`, the Ratio IC50 was 30.2. Consider `C=CC(=O)Nc1cc(Nc2nccc(-c3cn4c5c(cccc35)CCC4)n2)c(OC)cc1N1CC(N(C)C)C1`, for which the Ratio IC50 stood at 13. Consider `C=CC(=O)Nc1cc(Nc2cc(-c3cn4c5c(cccc35)CCC4)ncn2)c(OC)cc1N(C)CCN(C)C`, for which the Ratio IC50 was determined as 1.2.

With `C=CC(=O)Nc1cc(Nc2nccc(-c3cn4c5c(cccc35)CCC4)n2)c(OC)cc1N1CCC(CN(C)C)C1` (stereo not given), the Ratio IC50 worked out at 4.6. With `C=CC(=O)Nc1cc(Nc2cc(-c3cn(C)c4ccccc34)ncn2)c(OC)cc1N(C)CCN(C)C`, the Ratio IC50 was 1.4. Turning to `C=CC(=O)Nc1cc(Nc2cc(-c3cn4c5c(cccc35)CCC4)nc(OC)n2)c(OC)cc1N(C)CCN(C)C`, the Ratio IC50 stood at 24.7. For the compound `C=CC(=O)Nc1cc(Nc2nc(OC)cc(-c3cn(C)c4ccccc34)n2)c(OC)cc1N(C)CCN(C)C`, the Ratio IC50 was 52.6.
